Values joined by “and” are separate entries in the source; they are usually repeats but may differ in a detail not shown here. Equal entries are not always repeated.
Tests used:
PPARγ = target: T1, PPARγ (Homo sapiens, UniProt P37231); test: cell-based; format: cell-based; conditions: for activation at 10 µM: COS-7, read-out: PPARγ activation @10 μM, at 10 μM, compared to pioglitazone 1 μM; for EC50: i.a. = inactive; for Emax: COS-7, read-out: Emax-% PPARγ (maximum activation in percent)
T1 construct: expressed in transfected cells; host or cells: COS-7
Description: (§1) COS-7 cells (PPAR) were grown in DMEM high glucose, supplemented with 10% fetal calf serum (FCS), 1% sodium pyruvate (SP) and 1% penicillin/streptomycin (PS) at 37° C. and 5% CO2. Used plasmids for PPAR transactivation assay are shown under supporting informations.
(§2) The day before transfection, COS-7 cells were seeded in 96-well plates with a density of 30,000 cells per well. Transient transfection was carried out using Lipofectamine LTX reagent (Invitrogen, Carlsbad, Calif., USA) according to the manufacturer's protocol with pFR-Luc (Stratagene), pRL-SV40 (Promega) and the Ga14-fusion receptor plasmids (pFA-CMV-hPPAR-LBD) of the respective PPAR subtype. 5 h after transfection, medium was changed to DMEM without phenol red and 10% FCS, supplemented with 1% SP, 1% PS and 1% L-glutamine, now additionally containing 0.1% DMSO and the respective test compound or 0.1% DMSO alone as untreated control. Each concentration was tested in triplicate wells and each experiment was repeated independently at least three times. Following overnight incubation with the test compounds, cells were assayed for luciferase activity using Dual-Glo™ Luciferase Assay System (Promega) according to the manufacturer's protocol. Luminescence was measured with an Infinite m200 luminometer (Tecan Deutschland GmbH). Each concentration of the compounds was tested in triplicate wells. Normalization for transfection efficacy and cell growth was done by division of the firefly luciferase data by renilla luciferase data resulting in relative light units. Activation factors were obtained by dividing by DMSO control. […] All compounds were evaluated by comparison of the achieved maximum effect to that of the reference compound (pioglitazone for PPARγ, GW7647 for PPARa, and L165041 for PPARS each with 1 μM). Data are expressed as mean±SE; n≥3.
The Gal4-fusion receptor plasmids pFA-CMV-PPARa-LBD, pFA-CMV-PPARS-LBD and pFA-CMV-PPARγ-LBD containing the hinge region and ligand binding domain (LBD) for each of the PPAR subtypes, respectively, were constructed by integrating cDNA fragments obtained from PCR amplification of human monocytes into the SmaI/XbaI cleavage site of the pFA-CMV vector (Stratagene, La Jolla, Calif., USA) and have already been published. […] Frame and sequence of the fusion receptors were verified by sequencing. pFR-Luc (Stratagene) was used as reporter plasmid and pRL-SV40 (Promega) for normalization of transfection efficacy and cell growth.

Protein sequences, listed by entry. Tags and fused reporters are not part of them. Residues count along the entry.
UniProt P37231, 238-503: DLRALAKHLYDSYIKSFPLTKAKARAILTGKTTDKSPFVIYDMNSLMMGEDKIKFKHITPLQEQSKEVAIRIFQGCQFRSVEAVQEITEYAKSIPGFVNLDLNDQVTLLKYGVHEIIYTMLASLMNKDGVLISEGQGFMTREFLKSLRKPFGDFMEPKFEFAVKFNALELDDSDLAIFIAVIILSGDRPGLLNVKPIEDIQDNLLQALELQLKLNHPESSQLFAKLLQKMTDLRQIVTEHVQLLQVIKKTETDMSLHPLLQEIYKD
UniProt Q07869, 239-466: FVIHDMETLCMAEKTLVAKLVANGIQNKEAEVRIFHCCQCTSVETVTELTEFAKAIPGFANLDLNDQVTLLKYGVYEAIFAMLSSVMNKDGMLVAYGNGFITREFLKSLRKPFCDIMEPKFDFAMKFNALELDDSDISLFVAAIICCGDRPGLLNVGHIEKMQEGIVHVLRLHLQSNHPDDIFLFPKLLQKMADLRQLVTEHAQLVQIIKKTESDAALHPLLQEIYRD
UniProt P34913, whole entry: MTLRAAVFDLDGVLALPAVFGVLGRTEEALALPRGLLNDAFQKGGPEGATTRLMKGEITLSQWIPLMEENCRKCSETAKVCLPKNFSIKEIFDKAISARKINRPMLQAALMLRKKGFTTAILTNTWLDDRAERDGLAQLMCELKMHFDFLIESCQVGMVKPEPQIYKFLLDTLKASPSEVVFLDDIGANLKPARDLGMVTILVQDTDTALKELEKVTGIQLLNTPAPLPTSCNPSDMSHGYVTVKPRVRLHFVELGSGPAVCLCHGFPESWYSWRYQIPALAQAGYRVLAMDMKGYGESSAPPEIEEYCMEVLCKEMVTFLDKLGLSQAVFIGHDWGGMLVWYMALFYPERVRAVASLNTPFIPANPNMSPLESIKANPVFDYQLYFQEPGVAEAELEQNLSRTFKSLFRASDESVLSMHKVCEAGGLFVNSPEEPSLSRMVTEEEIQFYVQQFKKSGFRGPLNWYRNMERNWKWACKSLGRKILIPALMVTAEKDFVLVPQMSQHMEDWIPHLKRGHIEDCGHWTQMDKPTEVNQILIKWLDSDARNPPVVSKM

PPARα = target: T2, PPARα (Homo sapiens, UniProt Q07869); test: cell-based; conditions: COS-7, read-out: Emax-% PPARα (maximum activation in percent)
T2 construct: expressed in transfected cells; host or cells: COS-7
Description: as §1
as §2, with “Following overnight incubation with the test compounds, cells were assayed for luciferase activity using Dual-Glo™ Luciferase Assay System (Promega) according to the manufacturer's protocol.” left out, “GmbH).” for “GmbH). Each concentration of the compounds was tested in triplicate wells. Normalization for transfection efficacy and cell growth was done by division of the firefly luciferase data by renilla luciferase data resulting in relative light units. Activation factors were obtained by dividing by DMSO control.”, “n≥3. […]” for “n≥3.”

[1] = after p.o. 30 mg/kg bw of 1c
recombinant human sEH = recombinant human sEH (Homo sapiens, UniProt P34913); format: biochemical

Row | SMILES | activation at 10 µM (PPARγ) [%] | EC50 (PPARγ) [nM] | Emax (PPARγ) [%] | also measured
1 | O=C(O)CCc1ccc(C(=O)NCc2ccccc2C(F)(F)F)cc1 [Compound 16c, 3-[4-(N-((2-trifluoromethyl)benzyl)benzamide)]propionic acid] | 38 | – | – | –
2 | CCCC(Cc1ccc(C(=O)NCc2ccccc2C(F)(F)F)cc1)C(=O)OCC (stereo not drawn) [Compound 18b, Ethyl 2-propyl 3-[4-(N-((2-trifluoromethyl)benzyl)benzamide)]propanoate] | – | 900 ± 200 | – | –
3 | CCOC(=O)C(CC)Cc1ccc(C(=O)NCc2ccccc2C(F)(F)F)cc1 (stereo not drawn) [Compound 1b, Ethyl 2-ethyl 3-[4-(N-((2-trifluoromethyl)benzyl)benzamide)]propanoate] | – | 1800 ± 200 | 86 | –
4 | CCC(Cc1ccc(C(=O)NCc2ccc(C(F)(F)F)cc2)cc1)C(=O)O (stereo not drawn) [Compound 8c, 2-Ethyl 3-[4-(N-((4-trifluoromethyl)benzyl)benzamide)]propionic acid] | – | – | – | Emax (PPARα): 89%
5 | CCC(Cc1cccc(C(=O)NCc2ccccc2C(F)(F)F)c1)C(=O)O (stereo not drawn) [Compound 15c, 2-Ethyl 3-[3-(N-((2-trifluoromethyl)benzyl)benzamide)]propionic acid] | – | 6400 ± 1300 | 60 | –
6 | CCOC(=O)CCc1ccc(C(=O)NCc2ccccc2C(F)(F)F)cc1 [Compound 16b, Ethyl 3-[4-(N-((2-trifluoromethyl)benzyl)benzamide)]propanoate] | 38 | – | – | –
7 | CC/C(=C\c1ccc(C(=O)NCc2ccccc2C(F)(F)F)cc1)C(=O)O [Compound 1d, (E)-4-[N-((2-Trifluoromethyl)benzyl)benzamide]-alpha-ethylcinnamic acid] | – | 2200 ± 300 | 117 | –
8 | CCOC(=O)C(CC)Cc1ccc(C(=O)NCc2ccccc2C)cc1 (stereo not drawn) [Compound 3b, Ethyl 2-ethyl 3-[4-(N-((2-methyl)benzyl)benzamide)]propanoate] | 15 | – | – | –
9 | CCC(Cc1ccc(C(=O)NCc2ccccc2C(F)(F)F)cc1)C(=O)O (stereo not drawn) [Compound 1c, 2-Ethyl 3-[4-(N-((2-trifluoromethyl)benzyl)benzamide)]propionic acid] | – | 4800 ± 2100 | 127 | maximum concentration in mouse plasma [1]: 7200 ng/ml and 20 μM
10 | O=C(NCc1ccccc1C(F)(F)F)c1ccc(C2CC2C(=O)O)cc1 (stereo not drawn) [Compound 22, 2-[4-(N-((2-trifluoromethyl)benzyl)benzamide)]cyclopropan carboxylic acid] | 24 | – | – | sEH IC50 / inhibitory potency (unit not given) (recombinant human sEH): double-digit nanomolar range
11 | CCOC(=O)C(CC)Cc1ccc(C(=O)NCc2ccccc2Cl)cc1 (stereo not drawn) [Compound 4b, Ethyl 2-ethyl 3-[4-(N-((2-chloro)benzyl)benzamide)]propanoate] | 14 | – | – | –
12 | CCC(Cc1ccc(C(=O)NCc2ccc(F)cc2)cc1)C(=O)O (stereo not drawn) [Compound 7c, 2-Ethyl 3-[4-(N-((4-fluoro)benzyl)benzamide)]propionic acid] | 23 | – | – | –

— patent US11447445B2, “Diabetes and metabolic syndrome treatment with a novel dual modulator of soluble epoxide hydrolase and peroxisome proliferator-activated receptors” (priority 2015, dated 2022)
